This experiment addresses T1, Aurora kinase A (Homo sapiens) (UniProt O14965).
T1 sequence (whole entry): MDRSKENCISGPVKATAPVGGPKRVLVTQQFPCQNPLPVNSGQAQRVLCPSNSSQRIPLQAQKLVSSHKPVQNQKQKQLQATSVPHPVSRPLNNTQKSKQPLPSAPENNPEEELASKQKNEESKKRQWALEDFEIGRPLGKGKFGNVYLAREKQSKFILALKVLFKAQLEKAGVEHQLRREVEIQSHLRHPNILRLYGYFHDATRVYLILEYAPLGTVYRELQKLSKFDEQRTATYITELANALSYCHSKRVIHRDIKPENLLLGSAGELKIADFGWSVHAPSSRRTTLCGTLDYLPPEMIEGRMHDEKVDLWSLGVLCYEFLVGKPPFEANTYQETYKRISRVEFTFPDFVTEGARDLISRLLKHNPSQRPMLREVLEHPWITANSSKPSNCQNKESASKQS
Put plainly: Inhibition of human recombinant aurora-2 kinase expressed in Sf9 cells at 20 uM using kemptide as substrate by kinase-Glo luciferase assay. A general note: In Kinase-Glo more light means more ATP remaining.

Activity calls are given as the source filed them. The rule behind the calls is not given here.

Take `COc1cc2[nH]c3ncnc(N4CCN(C(=S)Nc5ccc(S(=O)(=O)Nc6ncccn6)cc5)CC4)c3c2cc1OC`: the inhibition entry is “Active”.

The record behind these values is ChEMBL document CHEMBL3882391, “Substituted tricyclic compounds as protein kinase inhibitors” (2008).
